Amino acid sequences for entries named in this document (tags omitted). Residues count along the entry.
UniProt P17706, 1-387 isoform 2: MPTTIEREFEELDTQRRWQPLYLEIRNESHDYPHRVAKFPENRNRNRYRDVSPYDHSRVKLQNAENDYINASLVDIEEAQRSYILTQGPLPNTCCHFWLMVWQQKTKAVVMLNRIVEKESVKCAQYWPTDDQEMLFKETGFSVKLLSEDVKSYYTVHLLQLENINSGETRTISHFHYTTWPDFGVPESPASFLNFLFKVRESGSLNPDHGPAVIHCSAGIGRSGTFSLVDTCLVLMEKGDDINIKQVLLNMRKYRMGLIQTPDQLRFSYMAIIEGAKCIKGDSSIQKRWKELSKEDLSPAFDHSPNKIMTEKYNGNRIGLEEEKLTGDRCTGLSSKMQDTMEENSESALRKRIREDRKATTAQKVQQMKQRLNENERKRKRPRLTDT

According to patent US20250042894A1, “PROTEIN TYROSINE PHOSPHATASE INHIBITORS AND METHODS OF USE THEREOF” (Calico Life Sciences LLC, priority 2021, published 2025):

Key:
[1] = target: His tagged PTPN2 (TC45) protein (Homo sapiens, UniProt P17706); assay: Mobility Shift Assay (MSA) for PTPN2 inhibitors; settings: read-out: PTPN2 MSA IC50; Table 3; thiochromanes (X = S) and chromane comparators (X = O)
Experimental: Example 43: Mobility Shift Assay (MSA) Used to Determine Potency of PTPN2 Inhibitors
Compound activity was determined using in house His tagged PTPN2 (TC45) protein (SEQ ID NO: 1) in an in vitro enzymatic reaction. The enzymatic assay used to determine activity was a mobility shift assay using a LabChip EZ Reader by Caliper Life Sciences. The enzymatic reaction was carried out in assay buffer (50 mM HEPES pH 7.5, 1 mM EGTA, 10 mM EDTA, 0.01% Tween® 20, and 2 mM DTT). The compounds were dispensed on a white 384 well ProxiPlate™ (PerkinElmer Catalog #6008289) plate using the Labcyte Echo at varying concentrations (12 point, 1:3 dilution). The enzyme (at 0.5 nM) was incubated with compound for 10 minutes at room temperature. Thereafter, the substrate (phosphorylated insulin receptor probe sequence: ((OG488)-(NH—CH2—CH2—O—CH2—CH2—O—CH2—CO)-T-R-D-I—(PY)-E-T-D-Y—Y—R—K—K—NH2) (SEQ ID NO: 2) was added at 2 μM to the plates and incubated for another 10 minutes at room temperature. Finally, a quench solution (water and 4-bromo-3-(2-oxo-2-propoxyethoxy)-5-(3-{[1-(phenylmethanesulfonyl)piperidin-4-yl]amino}phenyl)thiophene-2-carboxylic acid) was added to the plates, which were then run on the EZ Reader (excitation 488 nm, emission 530 nm) to measure % conversion (the amount of phosphorylated substrate which was de-phosphorylated by PTPN2). […]

[2] = test system: IFNγ-induced STAT1 phosphorylation (pSTAT1) in B16F10 cells; assay: B16F10 Phospho-STAT1 HTRF proximal pharmacodynamic (PD) assay; settings: read-out: pSTAT1 EC50, Table 3, thiochromanes (X = S) and chromane comparators (X = O)
Experimental: Example 45: B16F10 (Murine Melanoma Cells) Phospho-STAT1 HTRF Proximal Pharmacodynamic (PD) Assay
B16F10 cells were grown and maintained in high glucose DMEM (Gibco, Catalog #11965-092, Dun Laoghaire Co Dublin) supplemented with 10% fetal bovine serum (Gibco, Catalog #10082-139, Dun Laoghaire Co Dublin). The cells were pelleted and resuspended in high glucose DMEM without phenol red (Gibco, Catalog #11054-020, Dun Laoghaire Co Dublin), supplemented with 10% fetal bovine serum and plated in a 384 well Corning plate (product #3765, Corning, NY) at 11,000 cells per well in a volume of 20 μL. The cells were dosed with the compounds of interest using an Echo Liquid Handler (Beckman Coulter, Brea, CA) at 50 μM top dose with 3-fold dilutions down to 0.002679 μM for a 10-point dose response. The plate was incubated for 3 hours at 37° C. and subsequently treated with recombinant mouse IFNγ (R&D Systems, Catalog #485-MI, Minneapolis, MN; 100 nM final concentration) for 10 minutes at 37° C. to induce STAT1 phosphorylation followed by 3.3 μM staurosporine treatment for 1 hour at 37° C. to terminate phosphorylation. […] The plate was incubated for 3 hours at room temperature and read on an EnVision® (Perkin Elmer) plate reader with laser excitation at 335 nm and emission at 665 nm. […]

O=C1CN(c2c(O)cc3c(c2F)C[C@H](NCCCC(F)F)CO3)S(=O)(=O)N1 gave an IC50 [1] of 8 nM.

With O=C1CN(c2c(O)cc3c(c2F)C[C@H](NCCCOCC(F)F)CO3)S(=O)(=O)N1 the EC50 [2] was over 50 µM and the IC50 [1] was 23 nM.
